Experiments:
Cannabinoid receptor 2 = Cannabinoid receptor 2 (Mus musculus, UniProt P47936); assay: Binding affinity towards mouse spleen cannabinoid receptor 2 using [3H]CP-55940; assay type: tissue-based
Cannabinoid receptor 1 = Cannabinoid receptor 1 (Rattus norvegicus, UniProt P20272); assay: Binding affinity towards rat forebrain cannabinoid receptor 1 using [3H]CP-55940

The chains behind the UniProt entries cited, without tags or fusion partners. Where a name states a change or a piece, a line headed by the entry shows the natural chain unless it says otherwise.
UniProt P47936: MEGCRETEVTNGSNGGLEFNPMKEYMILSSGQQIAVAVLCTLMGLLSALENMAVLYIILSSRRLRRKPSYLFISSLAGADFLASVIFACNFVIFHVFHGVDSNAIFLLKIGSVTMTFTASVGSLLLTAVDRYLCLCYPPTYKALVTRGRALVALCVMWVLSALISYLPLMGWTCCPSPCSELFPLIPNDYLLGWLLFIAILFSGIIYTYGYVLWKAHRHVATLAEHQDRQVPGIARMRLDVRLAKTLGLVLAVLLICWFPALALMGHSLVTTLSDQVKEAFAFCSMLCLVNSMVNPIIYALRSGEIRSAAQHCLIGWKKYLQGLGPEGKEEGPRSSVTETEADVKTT
UniProt P20272, whole entry: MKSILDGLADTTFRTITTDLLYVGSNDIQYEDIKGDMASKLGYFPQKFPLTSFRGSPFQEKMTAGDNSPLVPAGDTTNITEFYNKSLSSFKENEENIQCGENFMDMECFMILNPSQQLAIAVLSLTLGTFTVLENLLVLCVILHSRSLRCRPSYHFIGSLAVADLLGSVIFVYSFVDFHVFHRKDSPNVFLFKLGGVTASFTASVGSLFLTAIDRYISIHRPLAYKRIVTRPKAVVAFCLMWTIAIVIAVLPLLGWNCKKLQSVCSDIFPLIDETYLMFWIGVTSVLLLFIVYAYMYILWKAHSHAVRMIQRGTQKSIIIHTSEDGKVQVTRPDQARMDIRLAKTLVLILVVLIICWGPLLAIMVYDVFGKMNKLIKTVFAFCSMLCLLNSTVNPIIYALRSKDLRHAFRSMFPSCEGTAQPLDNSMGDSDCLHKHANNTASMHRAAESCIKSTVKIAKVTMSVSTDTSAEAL

Row | Compound | Ki (Cannabinoid receptor 2) | Ki (Cannabinoid receptor 1)
1 | CN1CCCC[C@H]1Cn1cc(C(=O)c2ccccc2I)c2ccccc21 | 580 nM | –
2 | CN1CCCC[C@@H]1Cn1cc(C(=O)c2ccccc2I)c2ccccc21 | 2.2 nM | –
3 | CN1CCCCC1Cn1cc(C(=O)c2ccccc2I)c2ccccc21 (centres undefined) | 2.9 nM | 2.8 nM

Source: ChEMBL document CHEMBL1140442, “Potent cannabinergic indole analogues as radioiodinatable brain imaging agents for the CB1 cannabinoid receptor” (J Med Chem, 2005)
